Data reported in US12171806B2, “Therapeutic regimens and methods for lowering blood glucose and/or body weight using GLP-1R and GCGR balanced agonists” (priority 2021, dated 2024).

Assay: Phase 1 MAD study of ALT-801: adverse events (TEAEs), safety overview

## CC[C@H](C)[C@H](NC(=O)[C@H](Cc1ccccc1)NC(=O)[C@H](CCC(=O)O)NC(=O)[C@@H]1CCCCNC(=O)CC[C@H](NC(=O)[C@H](CC(=O)O)NC(=O)[C@H](CC(C)C)NC(=O)[C@H](Cc2ccc(O)cc2)NC(=O)[C@H](CCCCN)NC(=O)[C@H](CO)NC(=O)[C@H](Cc2ccc(O)cc2)NC(=O)[C@H](CC(=O)O)NC(=O)[C@H](CO)NC(=O)[C@@H](NC(=O)[C@H](Cc2ccccc2)NC(=O)[C@@H](NC(=O)CNC(=O)[C@H](CCC(N)=O)NC(=O)C(C)(C)NC(=O)[C@@H](N)Cc2c[nH]cn2)[C@@H](C)O)[C@@H](C)O)C(=O)N[C@@H](CCCCNC(=O)[C@H]2O[C@@H](OCCCCCCCCCCCCCCCCCC(=O)O)[C@H](O)[C@@H](O)[C@@H]2O)C(=O)N[C@@H](C)C(=O)N[C@@H](C)C(=O)N1)C(=O)N[C@@H](CCC(N)=O)C(=O)N[C@@H](Cc1c[nH]c2ccccc12)C(=O)N[C@@H](CC(C)C)C(=O)N[C@@H](CC(C)C)C(=O)N[C@@H](CCC(N)=O)C(=O)N[C@H](C(N)=O)[C@@H](C)O [ALT-801, pemvidutide]
M1 1.2 mg (N = 7)
  TEAE Infections and infestations; Severe; n: 0
  TEAE Injection site bruising; Mild; %: (0.0%)
  TEAE Injection site bruising; Mild; n: 0
  TEAE Injection site bruising; Moderate; %: (0.0%)
  TEAE Injection site bruising; Moderate; n: 0
  TEAE Injection site bruising; PLT; %: (0.0%)
  TEAE Injection site bruising; PLT; n: 0
  TEAE Injection site bruising; Severe; %: (0.0%)
  TEAE Injection site bruising; Severe; n: 0
  TEAE Injection site dermatitis; Mild; %: (0.0%)
  TEAE Injection site dermatitis; Mild; n: 0
  TEAE Injection site dermatitis; Moderate; %: (0.0%)
  TEAE Injection site dermatitis; Moderate; n: 0
  TEAE Injection site dermatitis; PLT; %: (0.0%)
  TEAE Injection site dermatitis; PLT; n: 0
  TEAE Injection site dermatitis; Severe; %: (0.0%)
  TEAE Injection site dermatitis; Severe; n: 0
  TEAE Nausea; Mild; %: (14.3%)
  TEAE Nausea; Mild; n: 1
  TEAE Nausea; Moderate; %: (14.3%)
  TEAE Nausea; Moderate; n: 1
  TEAE Nausea; PLT; %: (0.0%)
  TEAE Nausea; PLT; n: 0
  TEAE Nausea; Severe; %: (0.0%)
  TEAE Nausea; Severe; n: 0
  TEAE Palpitation; Mild; %: (0.0%)
  TEAE Palpitation; Mild; n: 0
  TEAE Palpitation; Moderate; %: (0.0%)
  TEAE Palpitation; Moderate; n: 0
  TEAE Palpitation; PLT; %: (0.0%)
  TEAE Palpitation; PLT; n: 0
  TEAE Palpitation; Severe; %: (0.0%)
  TEAE Palpitation; Severe; n: 0
  TEAE Peripheral swelling; Mild; %: (0.0%)
  TEAE Peripheral swelling; Mild; n: 0
  TEAE Peripheral swelling; Moderate; %: (0.0%)
  TEAE Peripheral swelling; Moderate; n: 0
  TEAE Peripheral swelling; PLT; %: (0.0%)
  TEAE Peripheral swelling; PLT; n: 0
  TEAE Peripheral swelling; Severe; %: (0.0%)
  TEAE Peripheral swelling; Severe; n: 0
  TEAE Rectal haemorrhage; Mild; %: (0.0%)
  TEAE Rectal haemorrhage; Mild; n: 0
  TEAE Rectal haemorrhage; Moderate; %: (0.0%)
  TEAE Rectal haemorrhage; Moderate; n: 0
  TEAE Rectal haemorrhage; PLT; %: (0.0%)
  TEAE Rectal haemorrhage; PLT; n: 0
  TEAE Rectal haemorrhage; Severe; %: (0.0%)
  TEAE Rectal haemorrhage; Severe; n: 0
  TEAE Tachycardia; Mild; %: (0.0%)
  TEAE Tachycardia; Mild; n: 0
  TEAE Tachycardia; Moderate; %: (0.0%)
  TEAE Tachycardia; Moderate; n: 0
  TEAE Tachycardia; PLT; %: (0.0%)
  TEAE Tachycardia; PLT; n: 0
  TEAE Tachycardia; Severe; %: (0.0%)
  TEAE Tachycardia; Severe; n: 0
  TEAE Tooth impacted; Mild; %: (0.0%)
  TEAE Tooth impacted; Mild; n: 0
  TEAE Tooth impacted; Moderate; %: (0.0%)
  TEAE Tooth impacted; Moderate; n: 0
  TEAE Tooth impacted; PLT; %: (0.0%)
  TEAE Tooth impacted; PLT; n: 0
  TEAE Tooth impacted; Severe; %: (0.0%)
  TEAE Tooth impacted; Severe; n: 0
  TEAE Toothache; Mild; %: (0.0%)
  TEAE Toothache; Mild; n: 0
  TEAE Toothache; Moderate; %: (0.0%)
  TEAE Toothache; Moderate; n: 0
  TEAE Toothache; PLT; %: (0.0%)
  TEAE Toothache; PLT; n: 0
  TEAE Toothache; Severe; %: (0.0%)
  TEAE Toothache; Severe; n: 0
  TEAE Vessel puncture site pain; Mild; %: (0.0%)
  TEAE Vessel puncture site pain; Mild; n: 0
  TEAE Vessel puncture site pain; Moderate; %: (0.0%)
  TEAE Vessel puncture site pain; Moderate; n: 0
  TEAE Vessel puncture site pain; PLT; %: (0.0%)
  TEAE Vessel puncture site pain; PLT; n: 0
  TEAE Vessel puncture site pain; Severe; %: (0.0%)
  TEAE Vessel puncture site pain; Severe; n: 0
  TEAE Vomiting; Mild; %: (14.3%)
  TEAE Vomiting; Mild; n: 1
  TEAE Vomiting; Moderate; %: (0.0%)
  TEAE Vomiting; Moderate; n: 0
  TEAE Vomiting; PLT; %: (0.0%)
  TEAE Vomiting; PLT; n: 0
  TEAE Vomiting; Severe; %: (0.0%)
  TEAE Vomiting; Severe; n: 0
M1 1.2 mg ALT-801 (N = 7)
  TEAE Cough, maximum severity Mild, subjects %: (0.0%)
